Measured values taken from US6368812B1 (priority 1996, dated 2002).
Where two headings read alike, the source gives them in different places.

Experiments:
human GALR3 [1] = biological target: T1, human GALR3 (Homo sapiens, UniProt O60755); experiment: voltage clamp currents in Xenopus oocytes expressing hGALR3 and GIRK1/GIRK4; settings: read-out: EC50 (nM) Human GALR3 GIRK; Table 11
T1 sequence (O60755 1-368): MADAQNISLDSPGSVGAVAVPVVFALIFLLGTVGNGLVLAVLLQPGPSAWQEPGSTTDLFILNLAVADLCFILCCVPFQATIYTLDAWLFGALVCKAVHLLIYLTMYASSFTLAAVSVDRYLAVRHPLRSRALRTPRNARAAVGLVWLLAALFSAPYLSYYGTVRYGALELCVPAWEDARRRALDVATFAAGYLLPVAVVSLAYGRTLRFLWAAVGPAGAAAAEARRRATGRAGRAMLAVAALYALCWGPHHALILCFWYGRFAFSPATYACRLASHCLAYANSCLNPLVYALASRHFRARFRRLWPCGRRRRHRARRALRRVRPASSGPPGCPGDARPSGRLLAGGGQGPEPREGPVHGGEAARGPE

human GALR3 [2] = biological target: T1, human GALR3; experiment: porcine 125I-galanin binding, LM(tk-) cells stably expressing human GALR3 (L-hGalR3-228)

| Substance | EC50 (human GALR3 [1]) | Ki (human GALR3 [2]; read-out: Ki (nM) Hum GALR3 LMTK− #8, Table 10) | Ki (human GALR3 [2]; read-out: Ki (nM) Human L-hGalR3-228, Table 5, stable) |
| --- | --- | --- | --- |
| human galanin | 7340 nM |  |  |
| porcine galanin |  | 8.97 nM | 14 nM |
